Patent US12187709B2 (Genentech, Inc., priority 2021, dated 2025)

Amino acid sequences for entries named in this document (tags omitted). Residues count along the entry.
UniProt Q13191, 40-426 limits assumed: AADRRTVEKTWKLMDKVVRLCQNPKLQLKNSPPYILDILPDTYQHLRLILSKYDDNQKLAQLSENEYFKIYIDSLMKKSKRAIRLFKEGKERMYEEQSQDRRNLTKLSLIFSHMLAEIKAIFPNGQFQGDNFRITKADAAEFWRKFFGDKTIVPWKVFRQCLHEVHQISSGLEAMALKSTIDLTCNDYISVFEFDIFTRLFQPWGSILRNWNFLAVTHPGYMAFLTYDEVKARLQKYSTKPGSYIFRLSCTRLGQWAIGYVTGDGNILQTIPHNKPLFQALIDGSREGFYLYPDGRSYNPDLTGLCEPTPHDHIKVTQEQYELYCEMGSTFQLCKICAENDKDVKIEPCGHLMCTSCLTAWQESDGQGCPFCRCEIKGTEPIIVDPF
UniProt P22681, 47-435 limits assumed: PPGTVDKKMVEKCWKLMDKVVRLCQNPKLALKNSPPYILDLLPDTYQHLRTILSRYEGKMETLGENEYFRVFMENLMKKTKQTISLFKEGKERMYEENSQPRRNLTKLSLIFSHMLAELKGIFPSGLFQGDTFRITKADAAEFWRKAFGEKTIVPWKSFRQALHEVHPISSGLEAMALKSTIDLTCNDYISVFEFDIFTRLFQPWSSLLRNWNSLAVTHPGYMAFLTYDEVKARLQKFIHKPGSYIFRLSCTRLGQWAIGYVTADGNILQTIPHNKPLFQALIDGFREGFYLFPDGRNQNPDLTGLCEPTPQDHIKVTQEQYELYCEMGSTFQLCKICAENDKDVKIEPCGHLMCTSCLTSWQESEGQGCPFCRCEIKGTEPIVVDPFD

Legend:
[1] = target: Human Cbl-b (residues 40-426) (Homo sapiens (Human), UniProt Q13191); assay: Cbl-b SPR assay; conditions: C-cbl SPR Kd vs Cbl-b SPR Kd
[2] = target: c-Cbl (Homo sapiens (Human), UniProt P22681); assay: C-Cbl LCK Ub TR-FRET assay (C-cbl Lck HTRF); conditions: read-out: C-cbl Lck HTRF IC50
[3] = target: Cbl-b (Homo sapiens (Human), UniProt Q13191); assay: Cbl-b LCK Ub TR-FRET assay (Cbl-b Lck HTRF); conditions: for fold-selectivity (Cbl-b over C-cbl): ratio C-cbl Lck HTRF IC50 / Cbl-b Lck HTRF IC50
[4] = target: c-Cbl (residues 47-435) (Homo sapiens (Human), UniProt P22681); assay: c-Cbl SPR assay; conditions: read-out: C-cbl SPR Kd, 20° C.

Structure (SMILES) | Fold of selectivity [1] | pIC50 [2] | fold-selectivity (Cbl-b over C-cbl) [3] | pKd [4] | pIC50 ([3]; read-out: Cbl-b Lck HTRF IC50, Cbl-b LCK Ub TR-FRET)
Cn1cnnc1C(c1cccc(N2Cc3c(cc(CNC4(C)CCC4)cc3C(F)(F)F)C2=O)c1)C1CC(OC(F)(F)F)C1 (single isomer, unassigned) | 3.5 × | 8.32 | 0.8 | 8.34 | –
Cn1cnnc1[C@H](c1cc(F)cc(N2Cc3c(cc(CNC4(C)CCC4)cc3C(F)(F)F)C2=O)c1)C1COC1 (single isomer, unassigned) | – | 5.08 | 2.9 | – | 5.57

pIC50, pKd: −log10 of the molar value.
